# Curated experimental data: properties

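The OPERA project collected these measurements from public sources as training and test data for property models. A listed value is a point estimate from one report or more. Method, purity and exact conditions of the single measurements are not given. Where a salt, mixture or single isomer is drawn, the source does not say that exactly this form was tested. Unmarked limits or estimates from the upstream databases cannot be ruled out.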

The melting point is given in degrees Celsius.
Boiling points are in °C, nominally at 760 mmHg.
logP is the log10 of the octanol-water partition coefficient; higher is more lipophilic.
Solubility in water is on a log10 molar scale (set defined at 25 °C).
Vapor pressures (log10 mmHg) refer to near room temperature, 15 to 30 °C; higher is more volatile.
fu is the fraction unbound in human plasma, from 0 to 1.
Clint is human hepatic intrinsic clearance in µL/min per million cells; 0 means that no clearance was seen.

For c1ccc(Nc2ccccc2)cc1 [Diphenylamine] the data give plasma fu 0.00325 and intrinsic clearance 64.57 µL/min/10^6 cells. COC(=O)c1ccc(C(C)(C)C)cc1 [Benzoic acid, 4-(1,1-dimethylethyl)-, methyl ester] is reported with logP (octanol/water) 4.3 and log solubility -3.74 (log10 mol/L). The entry for NCCCCCCNCCCCCCN [N-(6-Aminohexyl)hexane-1,6-diamine] lists logP (octanol/water) 1.3 and vapor pressure -4.126 (log10 mmHg). CCCCC(=O)OCC(=O)[C@]1(O)Cc2c(O)c3c(c(O)c2[C@@H](O[C@H]2C[C@H](NC(=O)C(F)(F)F)[C@H](O)[C@H](C)O2)C1)C(=O)c1c(OC)cccc1C3=O [Valrubicin] has logP (octanol/water) 2.2 and log solubility -4.348 (log10 mol/L). CC(=O)O[Si](OC(C)=O)(OC(C)(C)C)OC(C)(C)C has melting point -90.08 °C and vapor pressure -1.531 (log10 mmHg).

Listed for CC1CC(C)(C)OC(Cc2ccccc2)O1 (stereo unspecified) [2-Benzyl-4,4,6-trimethyl-1,3-dioxane]: logP (octanol/water) 3.9 and log solubility -2.745 (log10 mol/L) and vapor pressure -2.292 (log10 mmHg). O=C1CCCCCCCCCCCCCC1 [Cyclopentadecanone] is reported with logP (octanol/water) 5.6 and log solubility -5.589 (log10 mol/L) and vapor pressure -2.424 (log10 mmHg). CC(C)CCCCCOC(=O)CCC(=O)OCCCCCC(C)C [Diisooctyl succinate] has melting point -64 °C and vapor pressure -4.021 (log10 mmHg). Clc1cc(-c2c(Cl)c(Cl)c(Cl)c(Cl)c2Cl)c(Cl)c(Cl)c1Cl [2,2',3,3',4,4',5,5',6-Nonachlorobiphenyl] has melting point 205 °C and log solubility -10.27 (log10 mol/L) and vapor pressure -6.115 (log10 mmHg). Listed for CCCCC(CC)COC(=O)c1cc(C(=O)OCC(CC)CCCC)c(C(=O)OCC(CC)CCCC)cc1C(=O)OCC(CC)CCCC (stereo unspecified): melting point -34 °C and logP (octanol/water) 6.01.

Listed for O=C(O)C(CCBr)(c1ccccc1)c1ccccc1 [4-Bromo-2,2-diphenylbutyric acid]: logP (octanol/water) 2.75 and log solubility -4.069 (log10 mol/L) and vapor pressure -6.002 (log10 mmHg). CO[C@@H]1C=CO[C@]2(C)Oc3c(C)c(O)c4c(c3C2=O)C(=O)C(N)=C(NC(=O)C(C)=CC=C[C@@H](C)[C@@H](O)[C@H](C)[C@H](O)[C@H](C)[C@@H](OC(C)=O)[C@H]1C)C4=O is reported with melting point 155.7 °C and logP (octanol/water) 4.1 and log solubility -3.568 (log10 mol/L) and vapor pressure -7.813 (log10 mmHg). For CC(C)=CCC/C(C)=C/CC[C@H](C)CC=O [(3S,6E)-3,7,11-Trimethyl-6,10-dodecadienal] the data give BP 286.9 °C and logP (octanol/water) 6.21 and log solubility -5.889 (log10 mol/L) and vapor pressure -2.534 (log10 mmHg). The entry for NC(=O)Cn1c(=O)cc(CCN2CCN(c3nccc4sccc34)CC2)c2ccc(F)cc21 [Trelanserin] lists plasma fu 0.0607 and intrinsic clearance 7.06 µL/min/10^6 cells. Listed for C=CCCc1ccc(-c2ccc(-c3ccc(CC)cc3)cc2F)cc1: melting point 60.5 °C and BP 460 °C and log solubility -7.82 (log10 mol/L) and vapor pressure -9.335 (log10 mmHg).

For CCCCCCCCCCCCCC[Si](C)(O[Si](C)(C)C)O[Si](C)(C)C [Capryl methicone] the data give logP (octanol/water) 4.62 and log solubility -6.777 (log10 mol/L). CC1(C)C(=O)N(CO)C(=O)N1CO [1,3-Dimethylol-5,5-dimethylhydantoin] is reported with melting point 90 °C and logP (octanol/water) -2.9 and vapor pressure -7.046 (log10 mmHg). For CCNc1ccccc1 [N-ethylaniline] the data give plasma fu 0.214 and intrinsic clearance 21.8 µL/min/10^6 cells. For O=S(=O)([O-])c1cc(Nc2nc(Nc3ccccc3)nc(N3CCOCC3)n2)ccc1/C=C/c1ccc(Nc2nc(Nc3ccccc3)nc(N3CCOCC3)n2)cc1S(=O)(=O)[O-].[Na+].[Na+] the data give logP (octanol/water) -1.54 and log solubility -2.711 (log10 mol/L). CC(=O)c1ccc(Oc2ccc(Cl)cc2)cc1Cl [1-[2-Chloro-4-(4-chlorophenoxy)phenyl]ethan-1-one] is reported with logP (octanol/water) 4.52 and log solubility -5.127 (log10 mol/L) and vapor pressure -5.625 (log10 mmHg).

CCCCCO[C@@H]1O[C@@H](C)[C@H](O)[C@@H](O)[C@H]1O [Pentyl 6-deoxy-alpha-L-mannopyranoside] has BP 216.8 °C and logP (octanol/water) 0.74.

3 of these entries, quoted again:

Listed for O=C1CCCCCCCCCCCCCC1 [Cyclopentadecanone]: logP (octanol/water) 5.6 and log solubility -5.589 (log10 mol/L) and vapor pressure -2.424 (log10 mmHg).
Listed for CC1CC(C)(C)OC(Cc2ccccc2)O1 (stereo unspecified) [2-Benzyl-4,4,6-trimethyl-1,3-dioxane]: logP (octanol/water) 3.9 and log solubility -2.745 (log10 mol/L) and vapor pressure -2.292 (log10 mmHg).
Listed for NC(=O)Cn1c(=O)cc(CCN2CCN(c3nccc4sccc34)CC2)c2ccc(F)cc21 [Trelanserin]: plasma fu 0.0607 and intrinsic clearance 7.06 µL/min/10^6 cells.

From the experimental data distributed with OPERA 2.9.